What was measured:
red blood cells = test: Red blood cell hemolysis assay (MLC, PLC); assay type: cell-based; settings: for PLC: hemolytic activity
[1] = Stability of D- and L-amino acid peptide in human serum; assay type: in vitro ADME; settings: 0%, 2%, 5% or 10% human serum over 60 minutes
Procedure: The effect of D-amino acids on the stability of antimicrobial peptide in human serum was studied. An exemplary antimicrobial peptide, P297, was used in this study. (D)-P297 contains all D-amino acids and (L)-P297 contains all L-amino acids. The percentages of remaining intact peptides were measured either in the absence of human serum, or in the presence of 2%, 5%, or 10% human serum, over a period of 60 minutes.

## KKLLKWLKKLL [peptide 126]
Red blood cells
  PLC: 640 µg/mL

## GGG-D-Dab-cyclic(L-Dab-L-Dab-D-Leu-L-Phe-L-Dab-L-Dab-L-Leu) [GGG-Octapeptin]
Red blood cells; concentration that led to 50% red blood cell lysis
  Hemolysis PLC: >128 µg/mL
Red blood cells; concentration that led to 100% red blood cell lysis
  Hemolysis MLC: >128 µg/mL
Red blood cells; ratio of MLC to MIC
  MLC/MIC: >64
Red blood cells; ratio of PLC to MIC
  PLC/MIC: >64

## GGGKFFRKLKKSVKKRAKEFFKKPRVIGVSIPF [(L)-P297]
[1]
  stability in human serum (remaining intact peptide): degraded rapidly (and completely under certain testing conditions)

## GIGKFLKKAKKFGKAFVKILKKGGGGSGGGGS [peptide 24]
Red blood cells
  PLC: 512 µg/mL

## GAFGNFLKGVAKKAGLKILSIAQCKLFGTC [peptide 70]
Red blood cells
  PLC: 8 µg/mL

## GGGKFFRKLKKSVKKRAKEFFKKPRVIGVSIPF [(D)-P297]
[1]
  stability in human serum (remaining intact peptide): considerably more stable than (L)-P297

## ALWKTLLKKVLKAAAKGGGGSGGGGS [peptide 30]
Red blood cells
  PLC: 512 µg/mL

Reference: patent US11168131B2, “Antibody molecule-drug conjugates and uses thereof” (priority 2015, dated 2021)
